From US12570711B2, “Platforms for co-stimulation, novel car designs and other enhancements for adoptive cellular therapy” (Angeles Therapeutics, Inc., priority 2017, dated 2026)

Assays:
[1] = tested on: RAJI cells; assay: AP20187-induced proliferation and cytokine production of CAR-T cells exposed to RAJI cells; assay type: cell-based, human; conditions: AP20187 100 nM; exposed to CD19 expressing RAJI cells
Protocol: The experiments described in the preceding paragraphs are repeated by using CAR constructs in which the hNEMO-K277A accessory module is replaced by accessory modules encoding FKBPx2-hNEMO, FKBPx2-hNEMO-K277A (SEQ ID NO: 1006), FKBPx2-hNEMO-L753(251) (SEQ ID NO: 1007), FKBPx2-hNEMO-L600(200) (SEQ ID NO: 1008), IKK2-delta-SCD-FKBPv36x2 (SEQ ID NO: 7782), IKK1-delta-SCD-FKBPv36x2 (SEQ ID NO: 7781) and FKBPx2-RIP-ID (SEQ ID NO: 1009). T cells expressing the CAR and these accessory modules are tested using in vitro assays in the absence and presence of the dimerizer AP20187 (100 nM). […] In an in vivo experiment, NSG mice (n=12 per group) are xenografted with 2 million RAJI-Luc cells by tail vein injection and 3 days later administered 5 million T cells expressing a CD19-CAR and coexpressing the FKBPx2-hNEMO, FKBPx2-hNEMO-K277A (SEQ ID NO: 1006), FKBPx2-hNEMO-L753(251) (SEQ ID NO: 1007), FKBPx2-hNEMO-L600(200) (SEQ ID NO: 1008) and FKBPx2-RIP-ID (SEQ ID NO: 1009) modules. Half the mice in each group (n =6) are administered 40 μg of AP20187 every day for 10 days by intraperitoneal injection as described previously (Chinnery et al, J Immunol 2009; 182:2738-2744).

[2] = tested on: CD3+ve T cells; assay: Proliferation of T cells after lentiviral expression of NEMO mutants (cell numbers, long term culture); assay type: cell-based, human; conditions: for ability of T cells to proliferate long term in culture: expression in T cells
Text: Thus, the disclosure provides composition and methods to enhance the survival, proliferation, cytokine secretion, delay exhaustion and senescence and improve the in vivo expansion, persistence and anti-tumor activity of an immune cell, e.g., T cell, e.g., CAR-T or TCR-T or SIR-T cell, and/or an immune cell expressing a non-naturally occurring immune receptor, via selective or preferential (i.e., without AKT activation) activation of the NF-κB pathway in the immune cell.
Buffy coat cells were obtained from healthy de-identified adult donors from the Blood Bank at Children Hospital of Los Angeles and used to isolate peripheral blood mononuclear cells (PBMC) by Ficoll-Hypaque gradient centrifugation. PBMC were either used as such or used to isolate T cells using CD3 magnetic microbeads (Miltenyi Biotech) and following the manufacturer's instructions. PBMC or isolated T cells were re-suspended in XVIVO medium (Lonza) supplanted with 10 ng/ml CD3 antibody, 10 ng/ml CD28 antibody and 100 IU recombinant human-IL2. Cells were cultured at 37° C., in a 5% CO2 humidified incubator. Cells were activated in the above medium for 1 day prior to infection with lentiviral vectors. In general, primary cells (e.g. T cells) were infected in the morning using spin-infection (1800 rpm for 90 minutes at 37° C. with 300 μl of concentrated virus that had been re-suspended in XVIVO medium in the presence of 8 μg/ml of Polybrene® (Sigma, Catalog no. H9268). The media was changed in the evening and the infection was repeated for two more days for a total of 3 infections. After the 3rd infection, the cells were pelleted and resuspended in fresh XVIVO media containing 10 ng/ml CD3 antibody, 10 ng/ml CD28 antibody and 100 IU recombinant human-IL2 and supplemented with respective antibiotics (if indicated) and place in the cell culture flask for selection, unless indicated otherwise. Cells were cultured in the above medium for 10-15 days in case no drug selection was used and for 20-30 days in case drug-selection was used. In cases, where cells were infected with a lentivirus expressing EGFP, they were expanded without drug-selection or flow-sorted to enrich for EGFP-expressing cells. For infection of cancer cell lines, approximately 500,000 cells were infected with 2 ml of the un-concentrated viral supernatant in a total volume of 3 ml with Polybrene® (Sigma, Catalog no. H9268). Then next morning, the cells were pelleted and resuspended in the media with respective antibiotics and place in the cell culture flask for selection.
The mouse NEMO-K270A (SEQ ID NO: 992) is known to activate NF-κB constitutively. […] Cells were cultured at 37° C., in a 5% CO2 humidified incubator, and after 1 day infected with a lentiviral vector (pLENTI-EGFP-Blasticidin) expressing EGFP and lentiviral vectors expressing mouse NEMO-K270A mutants (pLENTI-mNEMO-K270A-FLAG-Blasticidin and pLENTI-mNEMO-K270A-HA-Blasticidin), or mouse NEMO-wt (pLENTI-mNEMO-FLAG-Blasticidin). The sequences of mNEMO-K270A and mNEMO-wt are provided in SEQ ID NOs: 992 and 991, respectively. Approximately 1 day post-infection, cells were selected with blasticidin and cell numbers calculated periodically.

[3] = tested on: NF-κB; assay: p65 nuclear translocation, nuclear NF-κB and AP1 binding activity in transduced bone marrow-derived dendritic cells; assay type: cell-based, mouse; conditions: for p65 (RelA) localisation in DCs: level similar to LPS-treated DCs, not in untreated or control vector DCs
Protocol: Transduction of DCs and flow cytometry. Murine bone marrow-derived Dendritic cells (DCs) are prepared as previously described. Immature DCs are transduced on day 4 at an MOT of 20 with lentiviral vectors as described (Rowe H M et al, Molecular Therapy, 13, 2, 2006) and fed every 4 days with fresh medium containing granulocyte-macrophage colony-stimulating factor (50 ng/ml; from Peprotech). On day 5 posttransduction, DCs are harvested, washed, and blocked for Fc receptors before surface staining for maturation markers with the following biotin-conjugated Abs: anti-CD11c, anti-CD86, and anti-I-Ab (MHC class II) (all from BD Pharmingen); anti-CD40 (from Serotec); and anti-CD80, anti-ICAM-1, and anti-Kb (MHC class I) (all from eBioscience). A hamster isotype control Ab (biotin conjugated) is purchased from BD Pharmingen. Abs are then labeled with streptavidin RPE Cy-5 2o reagent (DakoCytomation) before flow cytometry. Lipopolysaccharide (LPS) (50 ng/ml) (Sigma) is added to untransduced DCs and left overnight as a positive control for maturation. Zymosan A (10 μg/ml) treatment (for 30 min at 37° C.) is used as a control for ERK activation.
Mouse BM-derived Dendritic cells (DCs) are infected with the lentivectors encoding human NEMO-K277A, human NEMO-K277A-deltaV249-K255, mouse NEMO-K270A and IKK2-S177E-S181E either alone or in combination with Ii-OVA.

[4] = tested on: BM-derived DCs; assay: IL-12p70 and TNF-α ELISA of dendritic cell culture supernatants; assay type: cell-based, mouse; conditions: culture of transduced DCs
Protocol: ELISA. Culture supernatants are harvested from DCs plated at 5×10^5 cells per well (in 1.5 ml). IL-12p70 and tumor necrosis factor alpha (TNF-α) are detected by sandwich enzyme-linked immunosorbent assay (ELISA), using kits from eBioscience according to the manufacturer's guidelines.
After transduction of BM-derived DCs with human NEMO-K277A-, human NEMO-K277A-deltaV249-K255-, mouse NEMO-K270A- and IKK2-S177E-S181E, maturation markers on the transduced or nontransduced cells are analyzed.

[5] = target: T1, CD19 (Homo sapiens, UniProt P15391); assay: CAR-T cell in vitro and in vivo assay panel (IL2 production, proliferation, exhaustion, in vivo expansion, anti-tumor activity); parameters: endogenous in cells; host or cells: RAJI cells in vitro; Nalm-6-Luc cells xenografted in NSG mice
T1 sequence (P15391 20-556): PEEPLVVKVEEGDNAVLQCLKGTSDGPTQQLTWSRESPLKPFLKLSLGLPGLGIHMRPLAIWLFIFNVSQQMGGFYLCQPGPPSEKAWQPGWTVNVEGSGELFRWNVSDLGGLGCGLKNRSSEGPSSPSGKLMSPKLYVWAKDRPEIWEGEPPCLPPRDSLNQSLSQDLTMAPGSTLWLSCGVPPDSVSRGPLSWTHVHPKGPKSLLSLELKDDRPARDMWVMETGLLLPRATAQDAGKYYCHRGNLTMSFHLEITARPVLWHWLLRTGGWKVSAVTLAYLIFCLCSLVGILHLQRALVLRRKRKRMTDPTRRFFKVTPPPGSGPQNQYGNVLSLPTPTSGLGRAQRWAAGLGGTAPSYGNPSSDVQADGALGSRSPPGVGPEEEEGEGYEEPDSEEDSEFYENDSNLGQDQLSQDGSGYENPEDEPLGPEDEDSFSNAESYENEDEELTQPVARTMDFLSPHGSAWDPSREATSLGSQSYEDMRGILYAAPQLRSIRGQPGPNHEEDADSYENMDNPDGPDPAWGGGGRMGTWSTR

FKBPx2-RIP-ID: RIP-ID fused to FKBPx2 dimerizer domain, accessory module
proliferation and cytokine production of CAR-T cells on addition of AP20187 [1]: induce the proliferation and cytokine production

IKK1-delta-SCD-FKBPv36x2: IKK1 fusion with FKBPv36x2 switch domain, accessory module
proliferation and cytokine production of CAR-T cells on addition of AP20187 [1]: induce the proliferation and cytokine production

IKK2-S177E-S181E: constitutive active mutant of IKKβ/IKK2
ability of T cells to proliferate long term in culture [2]: extends their ability to proliferate long term in culture without undergoing senescence | activation of the MAPK pathway (nuclear AP1 binding activity) [3]: no affect on the activation of the MAPK pathway | nuclear NF-κB binding activity in transduced DCs [3]: Increased nuclear NF-κB binding activity | p65 (RelA) localisation in DCs [3]: nuclear translocation of p65 (RelA) | secretion of IL-12p70 and TNF-α [4]: upregulated | cytokine production, proliferation, in vivo expansion and anti-tumor activity of CAR-T cells [5]: increased cytokine production, proliferation, in vivo expansion and anti-tumor activity

IKK2-delta-SCD-FKBPv36x2: IKK2 fusion with FKBPv36x2 switch domain, accessory module
proliferation and cytokine production of CAR-T cells on addition of AP20187 [1]: induce the proliferation and cytokine production

B1: mNEMO-K270A: mouse NEMO-K270A mutant, known to activate NF-κB constitutively (protein)
chain: MNKHPWKNQLSETVQPSGGPAEDQDMLGEESSLGKPAMLHLPSEQGTPETLQRCLEENQELRDAIRQSNQMLRERCEELLHFQVSQREEKEFLMCKFQEARKLVERLSLEKLDLRSQREQALKELEQLKKCQQQMAEDKASVKAQVTSLLGELQESQSRLEAATKDRQALEGRIRAVSEQVRQLESEREVLQQQHSVQVDQLRMQNQSVEAALRMERQAASEEKRKLAQLQAAYHQLFQDYDSHIKSSKGMQLEDLRQQLQQAEEALVAAQELIDKLKEEAEQHKIVMETVPVLKAQADIYKADFQAERHAREKLVEKKEYLQEQLEQLQREFNKLKVGCHESARIEDMRKRHVETPQPPLLPAPAHHSFHLALSNQRRSPPEEPPDFCCPKCQYQAPDMDTLQIHVMECIE
ability of T cells to proliferate long term in culture [2]: extends their ability to proliferate long term in culture without undergoing senescence | proliferation of infected T cells ([2]; lentiviral infection, blasticidin selection, compared to EGFP or mouse NEMO-wt): proliferate more vigorously | activation of the MAPK pathway (nuclear AP1 binding activity) [3]: no affect on the activation of the MAPK pathway | nuclear NF-κB binding activity in transduced DCs [3]: Increased nuclear NF-κB binding activity | p65 (RelA) localisation in DCs [3]: nuclear translocation of p65 (RelA) | secretion of IL-12p70 and TNF-α [4]: upregulated
